Results taken from PubChem BioAssay AID504634 (The Scripps Research Institute Molecular Screening Center, 2011).
This is a selection; strong and weak results do not stand in their true shares. Active and inactive are the calls of the source. Rule as the data show it: active = inhibition mostly above about 23% (no sharp cut-off); inactive = mostly below about 18%.

Sequences of proteins named here, by UniProt entry; tags and fusion partners are left off.
UniProt P47898, whole entry, looked up: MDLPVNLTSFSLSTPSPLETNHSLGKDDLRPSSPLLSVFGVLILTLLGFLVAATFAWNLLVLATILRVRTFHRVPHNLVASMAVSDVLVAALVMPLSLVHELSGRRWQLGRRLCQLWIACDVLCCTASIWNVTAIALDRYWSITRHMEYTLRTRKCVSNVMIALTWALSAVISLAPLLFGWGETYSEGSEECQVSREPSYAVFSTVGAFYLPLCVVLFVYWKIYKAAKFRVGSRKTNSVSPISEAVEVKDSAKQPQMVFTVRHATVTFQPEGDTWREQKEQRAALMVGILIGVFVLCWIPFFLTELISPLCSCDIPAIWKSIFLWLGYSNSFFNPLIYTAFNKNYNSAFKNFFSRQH

What follows are compounds tested against 5-hydroxytryptamine receptor 5A (Homo sapiens) (UniProt P47898) (assay: inverse agonism at human 5-HT5A receptor – cell-based, luminescence, full-deck HTS, counter-screen for OPRM1-OPRD1 heterodimer inverse agonist project, primary screen (AID 504634;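 also: 0% = cells with DMSO and 100% = no-cell wells with DMSO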)). Settings: HTR5A cell line, at 9.3 µM, hits give high values.

SMILES	inhibition
CC(=O)NC(SC(=S)N(C)C)C(Cl)(Cl)Cl (stereo not drawn)	inactive: -4.47%
CCOC(=O)C1=C(Cn2cnc3ccccc32)NC(=O)NC1c1cc(C)ccc1C (stereo not drawn)	inactive: 17.3%
O=[N+]([O-])c1ccc(O)c(/C=N/Nc2ccc([N+](=O)[O-])cc2[N+](=O)[O-])c1	inactive: -9.58%
CCN(CC)C(=O)CSc1nc2ccccc2n1CC(=O)N1CCN(c2ccccc2OC)CC1	inactive: -3.31%
c1nnnn1CCn1cnnn1	inactive: 6.44%
CCC(=O)Nc1cccc(C(=O)/C=C/c2ccccc2)c1	inactive: -34.5%
CCOc1ccc(CCNC(=O)Cn2c(-c3nonc3N)nc3ccccc32)cc1OCC	inactive: -5.75%
CSc1nc2ccccc2n1CC(=O)Nc1cc(C(F)(F)F)ccc1N1CCOCC1	inactive: 9.72%
CCN(CC)CCn1c(NCc2nc3ccccc3n2Cc2ccccc2)nc2ccccc21	inactive: -13.5%
O=C(CCCCCNC(=O)N1CCn2c1nc1ccccc12)NCc1ccccc1	inactive: -8.06%
CCNC(=O)Cn1cnc2c1c(=O)n(C)c(=O)n2C	inactive: 11.5%
CCCC(=O)Nc1ccc2c(c1)nc1n2CCN(C2CCCCC2)C1	inactive: 4.68%
O=C(Cn1c(CO)nc2ccccc21)Nc1cc(C(F)(F)F)ccc1N1CCOCC1	inactive: 1.51%
CCN(C(=O)Cn1c(Cl)nc2c1c(=O)n(C)c(=O)n2C)C1CCCCC1	inactive: -0.44%
Cc1ccc(NC(=O)Cn2c(/C=C/c3ccccc3)nc3ccccc32)cc1C	inactive: -12.1%
CN(C)Cc1ccc(-c2nc3cccc4c3n2CCNC4=O)cc1	inactive: -36.2%
COc1ccc(-c2ccc3c(c2)[C@@H]2C[C@H](N(C)C(=O)C(C)(C)C)[C@H]([C@H](C)O)C(=O)N2CC3)cc1	inactive: -1.49%
Cc1ccc(-c2csc(N3CCC[C@@H]3C(=O)NCCn3c(-c4ccncc4)nc4ccccc43)n2)cc1	inactive: -51.9%
O=C(Cn1cnc2ccccc21)N/N=C/c1ccccc1	inactive: 7.08%
CCOC(=O)Cn1c(=O)oc2cc(S(=O)(=O)N3CCn4c3nc3ccccc34)ccc21	inactive: -13.7%
CC(C)[C@H](NC(=O)N1CCn2c1nc1ccccc12)C(=O)N[C@@H](Cc1ccccc1)C(=O)O	inactive: 21.3%
CCc1ccc(NC(=O)Cn2cnc3c(=O)n(C)c(=O)n(C)c32)cc1	inactive: 2.57%

SMILES	inhibition
CCS(=O)(=O)c1nc2ccccc2n1CC(=O)N1CCCCC1	inactive: 9.76%
CCC(C(=O)NC1CCCCC1)n1c(SCc2cccc(F)c2)nc2ccncc21 (stereo not drawn)	inactive: -2.92%
CC(/C=N/NC(=O)Cn1cnc2c1c(=O)n(C)c(=O)n2C)=C\c1ccccc1	inactive: -13.2%
CC(C)c1ccccc1NC(=O)Cn1c(-c2ccccc2Cl)nc2ccccc21	inactive: 8.22%
CC(C)C[C@H](NC(=O)N1CCn2c1nc1ccccc12)C(=O)N[C@H](Cc1ccccc1)C(=O)O	inactive: 1.77%
c1ccc(CNc2nc3ccccc3n2CCN2CCOCC2)nc1	inactive: 1.2%
Cn1c(=O)n(CC(=O)N2CCOCC2)c2ccccc21	inactive: 5.64%
O=P(Nc1nccs1)(c1ccccc1)c1ccccc1	inactive: 3.88%
CC(C)C(=O)NC(Sc1ccccc1)C(Cl)(Cl)Cl (stereo not drawn)	inactive: 14.2%
COc1ccc(OCC(O)Cn2c(=N)n(CCN3CCCCC3)c3ccccc32)cc1 (stereo not drawn)	inactive: -18.6%
C[C@@H](NC(=O)Cn1cnc2c(OCc3ccccc3)ncnc21)c1cccc2ccccc12	inactive: 7.23%
N#CCCN1CCn2c1nc1ccccc12	inactive: -1.97%
O=C(Cn1cnc2c(OCc3ccccc3)ncnc21)NCC1CCCO1 (stereo not drawn)	inactive: -3.61%
Cn1c(=O)c2ncn(CC(=O)N/N=C/c3ccco3)c2n(C)c1=O	inactive: 15.3%
CC1CCCC(C)N1C(=O)Cn1c(SCC(=O)Nc2ccc3c(c2)OCO3)nc2ccccc21 (stereo not drawn)	inactive: 3.37%
c1ccc2c(c1)nc1n2CCN1CCN1CCCC1	inactive: -8.84%
Cn1c(=O)c2c(ncn2CC(=O)N2CCN(S(=O)(=O)c3ccccc3)CC2)n(C)c1=O	inactive: -12.9%
CCOCCn1c(=O)c2c(nc3n2CCN3c2ccc(C)cc2)n(C)c1=O	inactive: -14.4%
Cc1ccccc1Oc1ccc2c(c1)[C@@H]1C[C@H](N(C)C(=O)NC3CCCCC3)[C@H]([C@H](C)O)C(=O)N1CC2	inactive: -0.23%
CCN(CC)CCn1c(=N)n(CC(O)c2ccc(OC)c(OC)c2)c2ccccc21 (stereo not drawn)	inactive: -11.2%
O=C(c1cccs1)N1CCn2c1nc1ccccc12	inactive: 9.36%
CC(C)C[C@H](NC(=O)N1CCn2c1nc1ccccc12)C(=O)NC1CC1	inactive: -15.6%

SMILES	inhibition
COc1ccc(NC(=O)CN(C)C(=O)Cn2cnc3c2c(=O)n(C)c(=O)n3C)cc1	inactive: 18.6%
Cn1c(=O)c2c(nc(CN3CCN(Cc4ccccc4)CC3)n2CCN2CCOCC2)n(C)c1=O	inactive: -28.7%
CC(NC(=O)Cn1c(NCCO)nc2ccccc21)c1ccccc1 (stereo not drawn)	inactive: 0.36%
COC(=O)[C@H](Cc1ccccc1)NC(=O)Cn1cnc2c(NCc3ccccc3)ncnc21	inactive: -2.39%
CCC(C)N(C(=O)Cn1c(Cl)nc2c1c(=O)n(C)c(=O)n2C)C1CCS(=O)(=O)C1 (stereo not drawn)	inactive: 1.38%
Brc1cccc(CNc2nc3ccccc3n2CCN2CCCCC2)c1	inactive: 17.6%
O=C(Cn1cnc2ccccc21)Nc1ccccc1-c1ccccc1	inactive: -30.8%
COc1ccc(OC)c(CNc2nc3ccccc3n2CCN2CCCCC2)c1	inactive: 2.98%
Cc1ccc2c(c1)C1CN(C)CCC1N2S(=O)(=O)c1ccc(C(C)C)cc1 (stereo not drawn)	inactive: 12%
CCSc1nc2ccccc2n1CC(N)=O	inactive: 23%
O=C(Cn1cnc2ccccc21)N/N=C/c1ccco1	inactive: -1.07%
COCCN1CCn2c(nc3cc(NS(C)(=O)=O)ccc32)C1	inactive: -21.2%
COc1ccc(CNc2nc3ccccc3n2CCN2CCCCC2)cc1	inactive: -5.16%
Cc1cccc(OCC(O)Cn2c(=N)n(CCN3CCCCC3)c3ccccc32)c1 (stereo not drawn)	inactive: -17.5%
Cn1c(=O)[nH]c(=O)c2c1nc(N1CCCCCC1)n2CC(N)=O	inactive: 0.98%
Nc1nonc1-c1nc2ccccc2n1CC(=O)N/N=C/c1ccc(-c2ccccc2C(=O)O)o1	inactive: 5.19%
COc1ccc(-c2nn(-c3ccccc3)cc2C(=O)N2c3ccc(C)cc3C3CN(C)CCC32)cc1 (stereo not drawn)	inactive: 23.8%
Cn1c(=O)c2c(nc(CN3CCN(C(c4ccccc4)c4ccccc4)CC3)n2CC(N)=O)n(C)c1=O	inactive: 9.02%
CC(=O)NC(C)c1nc2ccccc2n1CC(=O)NC(C)CCc1ccccc1 (stereo not drawn)	inactive: -7.15%
CCOC(=O)c1cccc(NC(=O)Cn2cnc3c2c(=O)n(C)c(=O)n3C)c1	inactive: -3.95%
CCc1cccc(C)c1NC(=O)CSc1nc2ccccc2n1CC(=O)N(C)C	inactive: 9%
CCN1C(=O)CC(n2c(C)nc3ccccc32)C1=O (stereo not drawn)	inactive: 15.3%

SMILES	inhibition
O=S(=O)(c1ccc(Cl)cc1)N1CCn2c1nc1ccccc12	inactive: 0.53%
CSCC[C@H](NC(=O)N1CCn2c1nc1ccccc12)C(=O)NCc1ccc2c(c1)OCO2	inactive: 17.2%
CC(/C=N/NC(=O)Cn1cnc2ccccc21)=C\c1ccccc1	inactive: -11.2%
COc1ccc(Cc2nnc(NC(=O)Cn3cnc4c3c(=O)n(C)c(=O)n4C)s2)cc1OC	inactive: -15.6%
CCCn1c(=O)c2c(nc3n2CCN3Cc2ccco2)n(C)c1=O	inactive: 0.07%
O=S(=O)(c1ccccc1)c1nnn2c1nc(NC1CCN(Cc3ccccc3)CC1)c1cc(Cl)ccc12	inactive: 9.63%
CCN(CC)c1ccc(NC(=O)Cn2c(C(C)NC(=O)c3ccc(C)cc3)nc3ccccc32)cc1 (stereo not drawn)	inactive: 0.92%
CSCC[C@H](NC(=O)N1CCn2c1nc1ccccc12)C(=O)NC1CC1	inactive: -6.89%
O=C(NC1CCCCC1)C(c1ccccc1)N(Cc1ccco1)C(=O)Cn1cnc2ccccc21 (stereo not drawn)	inactive: -14.8%
Cc1ccc(C(=O)Cn2c(=N)n(CCN3CCOCC3)c3ccccc32)cc1	inactive: -4.77%
CCOc1ccc(CNc2nc3ccccc3n2CCN2CCOCC2)cc1	inactive: 25.3%
O=[N+]([O-])c1cc([N+](=O)[O-])c(CCNc2ccccc2)c([N+](=O)[O-])c1	inactive: -38%
CCc1nc2c(n1)c1c(non1O)c1c2no[n+]1[O-]	inactive: 6.71%
Cc1csc2ncnc(NC3CCN(Cc4ccccc4)CC3)c12	inactive: -15.6%
Cn1c(=O)[nH]c(=O)c2c1nc(CN1CCN(Cc3ccccc3)CC1)n2CC(N)=O	inactive: 5.26%
Cc1ccc(OCC(O)Cn2c(=N)n(CCN3CCOCC3)c3ccccc32)cc1 (stereo not drawn)	inactive: -17.9%
COC(=O)c1ccc(NC(=O)Cn2c(-c3nonc3N)nc3ccccc32)cc1	inactive: -4.6%
N=c1n(CCN2CCCCC2)c2ccccc2n1CC(O)COc1ccccc1 (stereo not drawn)	inactive: 14.3%
Cc1ccc(NP(=O)(Oc2ccccc2)Oc2ccccc2)nc1	inactive: 6.51%
O=[N+]([O-])c1ccc(NC2CCN(Cc3ccccc3)CC2)c([N+](=O)[O-])c1	inactive: -0.72%
CC1CC(C)CN(C(=O)Cn2c(-c3nonc3N)nc3ccccc32)C1 (stereo not drawn)	inactive: 6.47%
Cc1nc2ccccc2n1CC(=O)N/N=C/c1cccs1	inactive: 5.63%
